Measurements: paper PMC5006944 (Cell, 2016)

Columns and labels:
[1] = test system: B-RAF and c-RAF binding to GST-RAS^G12D; settings: HeLa cells treated overnight, 2 mM
[2] = test system: WM-1617 melanoma cell line (V599E BRAF); settings: WM-1617 cells, RAS-independent MAPK signaling

Compound	binding of B-RAF and c-RAF to activated GST-RAS^G12D [1]	ERK or MAPK phosphorylation [2]
CCCS(=O)(=O)Nc1ccc(F)c(C(=O)c2c[nH]c3ncc(-c4ccc(Cl)cc4)cc23)c1F [PLX4032, vemurafenib, reference compound]	strong associations	completely block
COc1cc(OC)c(/C=C/S(=O)(=O)Cc2ccc(OC)c(NCC(=O)O)c2)c(OC)c1 [RGS, rigosertib]	inability of the B-RAF and c-RAF proteins to bind	little or no inhibition
